From ChEMBL document CHEMBL1833902, “Design, synthesis, and biological studies of efficient multivalent melanotropin ligands: tools toward melanoma diagnosis and treatment” (J Med Chem, 2011)

Amino acid sequences for entries named in this document (tags omitted).
UniProt P32245, whole entry: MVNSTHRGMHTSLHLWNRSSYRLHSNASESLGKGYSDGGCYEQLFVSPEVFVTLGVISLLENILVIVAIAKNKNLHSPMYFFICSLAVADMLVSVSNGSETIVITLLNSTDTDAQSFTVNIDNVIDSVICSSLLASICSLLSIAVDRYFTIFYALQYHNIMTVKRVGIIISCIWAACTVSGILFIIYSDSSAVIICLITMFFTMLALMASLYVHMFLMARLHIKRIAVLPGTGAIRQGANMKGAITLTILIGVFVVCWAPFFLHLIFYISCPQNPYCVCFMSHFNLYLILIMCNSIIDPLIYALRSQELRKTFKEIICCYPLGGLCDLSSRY

Target: Melanocortin receptor 4 (Homo sapiens, UniProt P32245)
Assay: Displacement of Eu-NDP-alpha-MSH from human MC4R expressed in HEK293 cells after 2 hrs by time resolved fluorescence assay
Type: cell-based

With CC(=O)N[C@@H](Cc1cnc[nH]1)C(=O)N[C@H](Cc1ccccc1)C(=O)N[C@@H](CCCN=C(N)N)C(=O)N[C@@H](Cc1c[nH]c2ccccc12)C(N)=O as the compound, how does the IC50 read?
The IC50 was 4.6 µM.
